The results in this text go back to BindingDB's records for doi:10.7270/Q23X852V (Srmlsc, 2007).

The IC50 is the concentration that inhibits the measured activity by half.

Each structure is given as a SMILES string.

The test deals with T1, Mevalonate kinase (Streptococcus pneumoniae serotype 2 (strain D39 / NCTC 7466), UniProt A0A0H2ZQX9).
T1 sequence (A0A0H2ZQX9 whole entry): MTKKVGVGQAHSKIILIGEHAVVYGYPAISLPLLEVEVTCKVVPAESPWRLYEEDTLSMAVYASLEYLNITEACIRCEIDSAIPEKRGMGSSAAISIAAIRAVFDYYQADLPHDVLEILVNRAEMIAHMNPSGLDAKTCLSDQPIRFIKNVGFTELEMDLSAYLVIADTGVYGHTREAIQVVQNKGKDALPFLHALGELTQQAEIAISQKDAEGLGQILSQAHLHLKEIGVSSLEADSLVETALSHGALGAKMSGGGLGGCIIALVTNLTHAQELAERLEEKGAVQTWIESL

As to `O=c1c2ccccc2[se]n1-c1ccccc1` [2-Phenyl-benzo[d]isoselenazol-3-one], the concentration for half-maximal inhibition (IC50) came out at 670 nM.
Regarding `O=C(O)c1cc2ccccc2c(Cc2c(O)c(C(=O)O)cc3ccccc23)c1O` [MLS000028605], inhibition was half-maximal at 511 nM (IC50).
